Measurements taken from patent publication US20220202895A1, “PULSATIVE GNRH ADMINISTRATION FOR TREATING COGNITIVE DISORDERS” (INSERM (Institut National de la Santé et de la Recherche …, priority 2019, published 2022).

Columns and labels:
[1] = tested on: Ts65Dn mice; experiment: Novel object recognition test (recognition memory); details: constant (continuous) infusion
[2] = tested on: Ts65Dn mice; experiment: Habituation/dishabituation test (ability to differentiate odors); details: constant (continuous) infusion

With “LUTRELEF®: a GnRH peptide of clinic use to restore fertility in patients with hypogonadotropic hypogonadism; GnRH acetate/diacetate (gonadorelin), Ferring Pharmaceuticals” the cognitive performance [1] was “no effect” and the olfactory performance [2] was “no effect”.
